Literature values as cited in patent US9682037B2, “Non-mucoadhesive film dosage forms” (APR APPLIED PHARMA RESEARCH S.A., priority 2006, dated 2017).

Substance: Buprenorphine HCl
- AUC0-48 (16 mg): AUC0-48 (hr · ng/ml) = 32.63 (CV = 25) (16.0 mg)
- Cmax (16 mg): Cmax = 5.47 ng/ml (CV = 23) (16 mg)
- buprenorphine level (below limit of quantitation) (1.0, 2.0 and 4.0 mg doses, after two hours, seven of eight subjects): below limit of quantitation (0.05 ng/ml) after
- Linearity / dose proportionality of pharmacokinetics (result in words): Dose proportional pharmacokinetics for
